Measured values from PMC4878873.
pKd: −log10 of the molar value.

Biological target: COP9-Signalosome (CSN), wild type (human) (UniProt Q13098)
Conditions: complex, chains chain;chain;chain;chain, dansyl

Q: With “Cul1^d/Rbx1 assembled with Skp2/Skp1 (from UniProt Q13616 1-776; P62877 1-108; P63208 1-163; Q13309 1-424)” as the substance, how does the pKd read?
A: 6.62
